Structures can show the parent of a compound that is named as a salt. Where two headings read alike, the source gives them in different places.
Description: Samples were prepared in triplicates for each concentration, n=3. All prepared samples were processed using LV-1 High Shear Fluid Processor “Microfluidizer” (Microfluidics, Newton, Mass.) equipped with G10Z reaction chamber under various pressures ranging from 15 to 30 KPsi for single or several passes. The microfluidizer-receiving coil was immersed in ice to reduce the heat produced during the process for heat-sensitive drugs. The particle size and potential of the produced nanosuspension were measured. The nanosuspension was centrifuged at 15,000 rpm and 15° C. for 30 minutes to collect the nanoparticles, and the solvent was then removed. The collected nanoparticles were completely dried by speed vacuum concentrator or lyophilization.
Nanoparticle Characterization: The particle size distribution and zeta potential of the nanosuspension was measured before and after size reduction by volume and by intensity using Mastersizer (Malvern) and Zetasizer Nano-ZS90 (Malvern), respectively. The average of 3 measurements for each sample was reported.

CNC[C@H](O)c1ccc(O)c(O)c1 [epinephrine bitartrate, (−)-3,4-dihydroxy-α-[(methylamino)methyl]benzyl alcohol (+)-tartrate (1:1) salt]
Mean ± SD particles size (Z-Average) (0.7 mg/ml, 1 pass at 30 KPsi): 706 + 289 nm | Mean ± SD particles size (Z-Average) (0.7 mg/ml, 4 passes at 30 KPsi): 618 ± 267 nm | Mean ± SD particles size (Z-Average) (0.7 mg/ml, 5 passes at 30 KPsi): 539 ± 65 nm | Mean ± SD particles size (Z-Average) (0.7 mg/ml, 6 passes at 30 KPsi): 501 ± 34 nm | Mean ± SD particles size (Z-Average) (1.4 mg/ml, 1 pass at 30 KPsi): 665 + 47 nm | Mean ± SD particles size (Z-Average) (1.4 mg/ml, 2 passes at 30 KPsi): 339 ± 34 nm | Mean ± SD particles size (Z-Average) (1.4 mg/ml, 4 passes at 30 KPsi): 456 ± 40 nm | Mean ± SD particles size (Z-Average) (2.8 mg/ml, 1 pass at 30 KPsi): 249 + 38 nm | Mean ± SD particles size (Z-Average) (2.8 mg/ml, 2 passes at 30 KPsi): 827 ± 114 nm | Mean ± SD particles size (Z-Average) (2.8 mg/ml, 4 passes at 30 KPsi): 976 ± 163 nm | Mean ± SD particles size (Z-Average) (2.8 mg/ml, 5 passes at 30 KPsi): 1713 ± 36 nm | Mean ± SD particles size (Z-Average) (2.8 mg/ml, 6 passes at 30 KPsi): 1161 ± 127 nm | Mean ± SD particles size (Z-Average) (3.5 mg/ml, 1 pass at 30 KPsi): 1211 + 389 nm | Mean ± SD particles size (Z-Average) (3.5 mg/ml, 2 passes at 30 KPsi): 1418 ± 79 nm | Mean ± SD particles size (Z-Average) (4.5 mg/ml, 1 pass at 30 KPsi): 1091 + 43 nm | Mean ± SD particles size (Z-Average) (4.5 mg/ml, 2 passes at 30 KPsi): 1242 ± 28 nm
